{
  "source": "paper PMC3098207",
  "about": "(Malaria Journal, 2011)",
  "origin": "cited, not measured here",
  "conditions": "IV AS; ref Binh et al 16, Batty et al 17; cited from earlier work",
  "data": [
    {"compound": "C[C@H]1[C@H](OC(=O)CCC(=O)O)O[C@@H]2O[C@@]3(C)CC[C@H]4[C@H](C)CC[C@@H]1[C@@]24OO3", "note": "[AS, artesunate]", "values": [
      {"measurement": "AS half-life estimates", "result": "less than ten minutes"}
    ]}
  ]
}
